The subject of one assay is HIV-1 NL4-3. The experiment in a line: Antiviral assay against HIV-1 NL4-3, percentage of infected cells by immunofluorescence (Example 2).
The test system of another assay is SARS-CoV-2. The experiment in a line: Antiviral assay, inhibition of virus-induced cytopathic effect (CPE) of SARS-CoV-2 by MTT assay (Example 1).

Turning to `O=C[C@H](O)[C@@H](O)[C@H](O)CO` [D-xylose], the “antiviral properties against HIV-NL4-3” value with HIV-1 NL4-3 is listed as “confirmed”. Moreover, the “antiviral properties against SARS-CoV-2” value with SARS-CoV-2 is recorded as “confirmed”.

(Values after patent US20260355225A1 (priority 2022, published 2026).)
